Test results as given in ChEMBL document CHEMBL4000154, “Pyristriatins A and B: Pyridino-Cyathane Antibiotics from the Basidiomycete Cyathus cf. striatus” (J Nat Prod, 2016).

Tested on: Pseudomonas aeruginosa
Experiment: Antibacterial activity against Pseudomonas aeruginosa PA14 after 24 to 48 hrs by serial dilution method
Format: functional

Question: Which MIC does the source give for GENTAMICIN here?
Answer: 0.5 µg/mL
